Measured values taken from patent US20210253651A1, “METHOD FOR PRODUCING ORGANIC COMPOUND-ENCAPSULATING FERRITIN” (Ajinomoto Co., Inc., priority 2018, published 2021).

How the values were obtained:
[1] = cited from earlier work
[2] = pH-dependence of FTH ferritin structure by DLS; format: physicochemical
Procedure: In order to investigate a pH-dependent change of the cage structure of ferritin, FTH ferritin was suspended in each of solutions with different pHs to achieve a final concentration of 1 mg/mL, and then the resulting solutions were left to stand at 25° C. for 30 minutes. Then, the size of ferritin was measured by the dynamic light scattering (DLS) method using Zetasizer Nano ZS for each pH. The measurement was carried out at 25° C. The used solutions were 0.1 N HCl (pH 1.7), 20 mM phosphoric acid (pH 2.6, pH 3.2, pH 5.6, pH 6.7 and pH 7.7), 20 mM acetic acid (pH 4.2, pH 4.9 and pH 5.3), 1 mM NaOH (pH 11.1), 10 mM NaOH (pH 12.3) and 100 mM NaOH (pH 12.8). pH adjustment was carried out for the solutions ranging from pH 2.0 to pH 2.4 by adding HCl to 10 mM Tris-HCl solution.

Row | Compound | logP [1] | average particle diameter determined by DLS ([2]; pH 1.7 to pH 2.4, 25° C.) [nm] | average particle diameter determined by DLS ([2]; pH 2.6 to pH 12.8, 25° C.) [nm]
1 | Cc1cc2nc3c(=O)[nH]c(=O)nc-3n(C[C@H](O)[C@H](O)[C@H](O)CO)c2cc1C [Riboflavin] | −1.46 | – | –
2 | FTH ferritin: ferritin formed of human-derived ferritin H chain (SEQ ID NO: 1) monomers | – | ≤ 8 | ≥ 11
